Earlier results in patent publication US11964021B2, “Bacterially derived, intact minicells for delivery of therapeutic agents to brain tumors” (EnGeneIC Molecular Delivery Pty Ltd, priority 2011, dated 2024).

Details: kinetics, FIG. 2A of MacDiarmid et al. Cancer Cell (2007); cited from earlier work

Fluoro-paclitaxel [flouro-paclitaxel]
leakage of drug out of intact minicells once packaged: did not leak out
